# Laboratory results reported in PubChem BioAssay AID540299 (ICCB-Longwood Screening Facility, Harvard Medical School, 2011).
# The chains behind the UniProt entries cited, without tags or fusion partners.
# UniProt P9WNP5, whole entry: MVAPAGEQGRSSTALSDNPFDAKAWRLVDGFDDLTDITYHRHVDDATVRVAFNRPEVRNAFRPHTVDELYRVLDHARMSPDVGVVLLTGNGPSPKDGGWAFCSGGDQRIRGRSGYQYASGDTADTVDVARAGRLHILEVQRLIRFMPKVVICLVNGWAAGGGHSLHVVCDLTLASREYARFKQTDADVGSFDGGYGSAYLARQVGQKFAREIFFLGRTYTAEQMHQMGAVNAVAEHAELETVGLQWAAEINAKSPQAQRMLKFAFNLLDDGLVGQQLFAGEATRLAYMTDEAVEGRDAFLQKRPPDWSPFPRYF
# This is a selection; strong and weak results do not stand in their true shares. Some tests of the compounds listed are not included; inactive here does not mean inactive elsewhere. Calls of active or inactive are those of the source. Rule as the data show it: active = inhibition above about 21% (passing the limit was not always enough); inactive = the rest.
# Biological target: 1,4-dihydroxy-2-naphthoyl-CoA synthase (Mycobacterium tuberculosis (strain ATCC 25618 / H37Rv)) (UniProt P9WNP5)
# Assay: M. tuberculosis MenB inhibitors, primary screen, biochemical, absorbance (AID 540299)
# Conditions: MenB enzyme assay, absorbance read-out; hits give high values; concentration not given here
row,SMILES,inhibition
1,CN1C2CCC1CC(OC(=O)C(O)(c1ccccc1)c1ccccc1)C2 (stereo not drawn),inactive: 25.6%
2,O=C(NCC1(N2CCCCC2)CCCCC1)c1ccc2c(c1)OCCO2,inactive: -3.66%
3,O=C(OC1CN2CCC1CC2)C(CO)(c1ccccc1)c1ccccc1 (stereo not drawn),inactive: -17.9%
4,N#CC(C#N)=Cc1ccccc1,inactive: -5.65%
5,CN(C)C1(CNC(=O)c2ccncc2)CCCCC1,inactive: -8.66%
6,COc1ccc(OC)c(C=C(C#N)C#N)c1,inactive: -29.6%
7,CN(C)c1ccc(C(=O)NCC2(N(C)C)CCCCC2)cc1,inactive: -25.8%
8,O=C(NCC1(N2CCOCC2)CCCCC1)c1cnc(Cl)c(Cl)c1,inactive: -31.8%
